{
  "source": "patent US20260284016A1",
  "about": "“COMBINATIONS AND METHODS FOR ENHANCING CHECKPOINT INHIBITOR THERAPIES IN CANCER TREATMENT” (PURDUE RESEARCH FOUNDATION, priority 2004, published 2026)",
  "key": {"BM-induced mice": {"test_system": "BM-induced mice", "settings": "mouse, in vivo", "description": "Studies were also performed to determine if macrophages in pulmonary fibrotic lungs might be specifically targeted with folate-linked drugs in vivo. […] (The BM model is widely regarded to be helpful in terms of enabling mechanistic investigations relevant to fibrogenesis in an in vivo context.)\nMore specifically, eight-week-old C57BL6 male mice from Charles River (average weight 22 g to 25 g) were housed under pathogen-free conditions at room temperature (22° C.) under a 12 hours light-dark cycle. Mice were placed on a folate deficient chow (Envigo Teklad Global Rat Food Pellets) for 1 week prior to the BM or PBS instillation. Fresh water and folate-deficient diet were freely available. […]\nThereafter, the mice were anesthetized with ketamine/xylazine and the necks of the mice were shaved using hair remover lotion and then sterilized with 70% alcohol. […] Body weights were monitored every other day throughout the experiment. […]\nFor the subsequent HYP analysis, 10 μl of sample was transferred into a 96-well plate and neutralized with 10 μl of 5.3 M sodium hydroxide solution. […] The absorbance was measured at 560 nm (A560) within 15 min. […]\nTwo doses were given every other day till day 21. […] Mice were then sacrificed on day 21 and subjected immediately to bronchoalveolar lavage followed by resection of the lungs for immunohistochemistry and quantitation of collagen and hydroxyproline."}, "healthy mice": {"test_system": "healthy mice", "settings": "mouse, in vivo"}},
  "data": [
    {"smiles": "CCCCc1nc2c(N)nc3ccccc3c2n1CC(C)(C)O", "note": "[Compound 1A]", "values": [
      {"measurement": "weight loss", "setting": "BM-induced mice", "result": "> 25", "unit": "%"},
      {"measurement": "systemic cytokine release (plasma IL-6, IFNα, TNFα)", "setting": "healthy mice", "result": "stimulates systemic cytokine release"}
    ]}
  ]
}
